In this assay the target is T1, human GALR2 (Homo sapiens, UniProt O43603).
T1 construct: expressed in transfected cells; host or cells: 293-AEQ17 (aequorin-expressing 293 line)
T1 sequence (O43603 1-387): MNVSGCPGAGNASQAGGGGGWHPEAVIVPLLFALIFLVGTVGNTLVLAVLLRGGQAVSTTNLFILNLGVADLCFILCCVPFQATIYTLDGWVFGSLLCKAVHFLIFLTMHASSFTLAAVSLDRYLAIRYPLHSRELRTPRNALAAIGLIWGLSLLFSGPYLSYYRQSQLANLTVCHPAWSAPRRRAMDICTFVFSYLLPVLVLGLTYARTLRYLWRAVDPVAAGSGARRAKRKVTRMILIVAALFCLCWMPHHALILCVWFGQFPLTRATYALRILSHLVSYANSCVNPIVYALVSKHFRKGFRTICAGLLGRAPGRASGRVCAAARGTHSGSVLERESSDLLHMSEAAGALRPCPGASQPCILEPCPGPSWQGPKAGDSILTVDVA
The assay is described as follows: Aequorin bioluminescence assay in 293-AEQ17 cells, human GALR2. The class given is cell-based. Conditions: read-out: EC50, aequorin bioluminescence; human GALR2 in 293-AEQ17 cells.

A word on the EC50: it is the concentration giving half of the maximal effect.

As to human Galanin, the EC50 is 32 nM.

For the origin of these results see patent US6337206B1 (priority 1997, dated 2002).
